# Test results published in paper PMC6554663, “Pharmaceutical Effects of Inhibiting the Soluble Epoxide Hydrolase in Canine Osteoarthritis” (Frontiers in Pharmacology, 2019).
# Assay: Solubility of sEHI
# Type: physicochemical
# Conditions: phosphate buffered saline, pH 7.4; in PBS; read-out: water solubility
# Description: […] The non-dissolved compounds were filtered through a 0.22 μm centrifuge filter at 40°C and the supernatant was further diluted 10 times with methanol. The samples were analyzed by LC/MS-MS.
smiles,measurement,value
"O=C(Nc1ccc(OC(F)(F)F)cc1)N[C@H]1CC[C@H](Oc2ccc(C(=O)O)cc2)CC1 [EC1728, trans-4-{4-[3-(4-trifluoromethoxy-phenyl)-ureido]-cyclohexyloxy}-benzoic acid]",solubility at 24 h,5 µg/mL
